{"sequences": {"note": "The chains behind the UniProt entries cited, without tags or fusion partners. Residues count along the entry.", "UniProt P21555, 2-382": "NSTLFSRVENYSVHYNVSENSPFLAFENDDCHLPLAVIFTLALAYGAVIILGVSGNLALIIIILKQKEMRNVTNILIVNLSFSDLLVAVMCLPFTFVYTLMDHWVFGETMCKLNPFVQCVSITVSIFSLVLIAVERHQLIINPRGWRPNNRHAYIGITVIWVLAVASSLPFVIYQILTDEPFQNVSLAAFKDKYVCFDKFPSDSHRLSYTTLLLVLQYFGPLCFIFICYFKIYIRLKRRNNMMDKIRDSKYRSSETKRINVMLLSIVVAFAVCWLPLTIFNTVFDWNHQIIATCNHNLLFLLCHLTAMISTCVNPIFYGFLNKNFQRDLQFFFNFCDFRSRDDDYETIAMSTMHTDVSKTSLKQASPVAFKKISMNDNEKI"}, "source": "paper PMC2901518", "about": "(British Journal of Pharmacology, 2010)", "target": "rat Y1 receptor (association with β-arrestin2) (Rattus norvegicus, UniProt P21555)", "experiment": "cell-based", "conditions": "pA2 (Schild plot), pooled, 30 min pre-incubation, NPY 60 min", "data": [{"smiles": "N=C(N)NCCC[C@@H](NC(=O)C(c1ccccc1)c1ccccc1)C(=O)NCc1ccc(O)cc1", "note": "[BIBP3226, (R)-N2-(diphenylacetyl)-N-[(4-hydroxyphenyl)methyl]-argininamide]", "values": [{"measurement": "Kb", "value": 10, "unit": "nM"}]}]}
